Amino acid sequences for entries named in this document (tags omitted).
UniProt P51787, whole entry: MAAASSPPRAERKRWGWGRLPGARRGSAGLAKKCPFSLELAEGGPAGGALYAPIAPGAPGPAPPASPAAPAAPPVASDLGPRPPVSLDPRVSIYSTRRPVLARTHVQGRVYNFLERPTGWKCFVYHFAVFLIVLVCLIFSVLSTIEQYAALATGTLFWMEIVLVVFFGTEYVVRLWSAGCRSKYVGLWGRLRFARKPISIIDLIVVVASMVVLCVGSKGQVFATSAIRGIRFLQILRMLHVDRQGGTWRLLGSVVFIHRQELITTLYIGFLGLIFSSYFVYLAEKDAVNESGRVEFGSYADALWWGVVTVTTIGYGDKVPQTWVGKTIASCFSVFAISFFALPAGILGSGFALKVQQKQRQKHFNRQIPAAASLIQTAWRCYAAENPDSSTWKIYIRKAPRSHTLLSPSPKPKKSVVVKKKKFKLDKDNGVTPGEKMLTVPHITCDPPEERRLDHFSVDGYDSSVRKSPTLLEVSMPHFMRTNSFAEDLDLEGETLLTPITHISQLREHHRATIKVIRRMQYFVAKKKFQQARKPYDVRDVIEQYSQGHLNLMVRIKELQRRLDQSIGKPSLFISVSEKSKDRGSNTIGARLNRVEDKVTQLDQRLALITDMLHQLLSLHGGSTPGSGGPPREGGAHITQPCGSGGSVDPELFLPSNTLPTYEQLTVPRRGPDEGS

The list shows a part of the results, in another mix than the full data. Active and inactive are the calls of the source.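 How the source made its calls: active means compounds whose thallium flux B-score, printed positive for inhibition, exceeds three library SD while starting fluorescence stays within three; inactive means the rest.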
Each molecule was assayed against Potassium voltage-gated channel subfamily KQT member 1 (Homo sapiens) (UniProt P51787) (assay: KCNQ1 potassium current blockers – cell-based, thallium flux, high-throughput, primary screen (AID 2642;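 further: channel opened by potassium depolarization with thallium stimulus after 20 min compound exposure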)). Settings: CHO-K1 KCNQ1, FluxOR thallium flux fluorescence, at 10 µM; stronger effect = higher value.
`CC1CCC(C(C)C)C(OP(=O)(Nc2ccccn2)c2ccccc2)C1` (stereo not drawn) was tested, and the outcome was “inactive”. In the case of `Cc1ccc(C(=O)OC2CN3CCC2CC3)cc1` (stereo not drawn), the outcome is reported as “inactive”. For `Cc1nn(-c2ccccc2)c2c1P(=O)(N1CCOCC1)N(C)C(c1ccccc1)=N2` (stereo not drawn), the outcome was “inactive”. In the case of `COc1cc(C2NCCC3(OCCO3)C2(C)C)cc(OC)c1OC.O=[N+]([O-])c1cc([N+](=O)[O-])c(O)c([N+](=O)[O-])c1` (stereo not drawn), the outcome is reported as “inactive”. With `CCOC(=O)C(CC)C1=NC(C)(C)Cc2ccccc21.O=[N+]([O-])c1cc([N+](=O)[O-])c(O)c([N+](=O)[O-])c1` (stereo not drawn) the outcome was “inactive”. `CN(C)C1(CNC(=O)c2ccc(S(C)(=O)=O)cc2)CCCCC1` was tested, and the outcome was “inactive”. With `O=[N+]([O-])c1cc([N+](=O)[O-])c(Nc2nnnn2CCO)c([N+](=O)[O-])c1` the outcome was “inactive”. For `O=C(/C=C/c1ccccc1)OC1CN2CCC1CC2` (stereo not drawn), the outcome was “inactive”. `COc1ccccc1OP(C)(=O)Nc1c(C)cccc1C` (stereo not drawn) was tested, and the outcome was “inactive”. With `CN1CCCCC1COC(=O)C1(O)c2ccccc2CCc2ccccc21` (stereo not drawn) the outcome was “inactive”. `O=P1(Nc2ncccn2)COc2ccccc2OC1` was tested, and the outcome was “inactive”. In the case of `CCCOc1ccc(NP(C)(=O)Oc2ccc(Cl)cc2)cc1` (stereo not drawn), the outcome is reported as “inactive”. In the case of `CP(=O)(Nc1ccc(SC(F)(F)F)cc1)Oc1ccccc1` (stereo not drawn), the outcome is reported as “inactive”. For `Nc1cccc([As](=O)(O)c2ccccc2)c1`, the outcome was “inactive”. For `O=[As](O)(c1cccs1)c1cccs1`, the outcome was “inactive”. `Cc1ccc(OCC(=O)OC2CN3CCC2CC3)cc1` (stereo not drawn) was tested, and the outcome was “inactive”. For `O=P1(Nc2ccc(Br)cn2)COc2ccccc2OC1`, the outcome was “inactive”. `O=[N+]([O-])c1cc([N+](=O)[O-])c(-n2nnc3ccccc32)c([N+](=O)[O-])c1` was tested, and the outcome was “inactive”. `CCOP(=O)(NC(=NC(C)c1ccccc1)NC(C)c1ccccc1)OCC` (stereo not drawn) was tested, and the outcome was “inactive”. In the case of `O=P1(Nc2ccccn2)COc2ccccc2OC1`, the outcome is reported as “inactive”. `CCOP(=O)(Nc1ccc(C)cn1)OCC` was tested, and the outcome was “inactive”. `CN(CCCl)Cc1cc(Cl)c(NC2=NCCN2)c(Cl)c1` was tested, and the outcome was “inactive”. With `CC(C)(C)C(=O)NC(Sc1ncccn1)C(Cl)(Cl)Cl` (stereo not drawn) the outcome was “inactive”. In the case of `Clc1n[nH]nc1-c1nn[nH][15n]1`, the outcome is reported as “inactive”. For `O=[N+]([O-])c1cc([N+](=O)[O-])c(-c2cnn(-c3ccccc3)c2)c([N+](=O)[O-])c1`, the outcome was “inactive”. With `COc1ccccc1CNC(=O)COC(=O)C(O)(c1ccccc1)c1ccccc1` the outcome was “inactive”. For `CC(C)/C=N\N=C(\N)N[N+](=O)[O-]`, the outcome was “inactive”. In the case of `CN(C(=O)Cc1ccc(Cl)c(Cl)c1)[C@@H]1CCCC[C@H]1N1CCCC1`, the outcome is reported as “inactive”. `CC1(CBr)Cn2c(nc3ccccc3c2=O)S1` (stereo not drawn) was tested, and the outcome was “inactive”. For `O=[As](O)(c1ccccc1Br)c1ccccc1Br`, the outcome was “inactive”. With `O=C(OC1CN2CCC1CC2)c1ccc(Cl)cc1` (stereo not drawn) the outcome was “inactive”. In the case of `CS(=O)(=O)c1ccc(Cl)c(NC(=O)COC(=O)C(O)(c2ccccc2)c2ccccc2)c1`, the outcome is reported as “inactive”. `COc1ccccc1OP(C)(=O)Nc1cccc(Br)c1` (stereo not drawn) was tested, and the outcome was “inactive”. `O=[As](O)(O)c1cccnc1` was tested, and the outcome was “inactive”. In the case of `Cc1cc(C)cc(OP(C)(=O)Nc2ccc(C)cc2C)c1` (stereo not drawn), the outcome is reported as “inactive”. `Cc1cccc(OCC(=O)OC2CN3CCC2CC3)c1` (stereo not drawn) was tested, and the outcome was “inactive”. `O=[As](O)(c1cccc(O)c1)c1cccc(O)c1` was tested, and the outcome was “inactive”. In the case of `CCOC(=O)c1ccc(NP(C)(=O)Oc2cc(C)cc(C)c2)cc1` (stereo not drawn), the outcome is reported as “inactive”. For `Cc1ccc(NCCc2c([N+](=O)[O-])cc([N+](=O)[O-])cc2[N+](=O)[O-])cc1`, the outcome was “inactive”. `Cc1cc(C)cc(OP(C)(=O)Nc2ccccn2)c1` (stereo not drawn) was tested, and the outcome was “inactive”. With `CP(=O)(Nc1cccc(Br)c1)Oc1ccccc1` (stereo not drawn) the outcome was “inactive”. With `Cc1ccc(C)c(NP(C)(=O)Oc2ccccc2)c1` (stereo not drawn) the outcome was “inactive”. In the case of `CCCOP(=S)(Nc1nc(N)cc(=O)[nH]1)OCCC`, the outcome is reported as “inactive”. For `CCOP(=O)(Nc1cccc2ccccc12)OCC`, the outcome was “inactive”. For `O=P(Nc1nccs1)(Oc1ccccc1)Oc1ccccc1`, the outcome was “inactive”. For `O=P(Nc1nccs1)(c1ccccc1)c1nc2ccccc2s1` (stereo not drawn), the outcome was “inactive”. In the case of `CCOP1(=S)c2c(C)nn(CCC#N)c2N=C(c2ccccc2F)N1C` (stereo not drawn), the outcome is reported as “inactive”. With `O=C(O)c1cccc(Nc2c([N+](=O)[O-])cc([N+](=O)[O-])cc2[N+](=O)[O-])c1` the outcome was “inactive”. In the case of `CS(=O)(=O)c1cc([N+](=O)[O-])c2no[n+]([O-])c2c1`, the outcome is reported as “inactive”. With `Nc1ccccc1[As](=O)(O)c1ccccc1` the outcome was “inactive”. In the case of `O=C(O)COc1ccc([As](=O)(O)O)cc1[N+](=O)[O-]`, the outcome is reported as “inactive”. For `NC(=O)Nc1ccc([As](=O)(O)O)cc1`, the outcome was “inactive”. `CN(C(=O)Cc1ccccc1)[C@@H]1CC[C@]2(CCCO2)C[C@H]1N1CCCC1` was tested, and the outcome was “inactive”. `CCOP1(=S)c2c(C)nn(CCC#N)c2N=C(c2ccc(F)cc2)N1C` (stereo not drawn) was tested, and the outcome was “inactive”. For `N#CCCN(C(=O)COC(=O)C(O)(c1ccccc1)c1ccccc1)c1ccc(F)cc1`, the outcome was “inactive”. In the case of `CC1=NCCc2c1[nH]c1ccccc21.O=[N+]([O-])c1cc([N+](=O)[O-])c(O)c([N+](=O)[O-])c1`, the outcome is reported as “inactive”. For `CN(C(=O)Cc1ccc(Cl)c(Cl)c1)[C@H]1CC[C@@]2(CCCO2)C[C@@H]1N1CCCC1`, the outcome was “inactive”. `O=[N+]([O-])c1ccc2c(c1)nnn2O` was tested, and the outcome was “inactive”. For `O=[N+]([O-])c1cc([N+](=O)[O-])c(Nc2cccnc2)c([N+](=O)[O-])c1`, the B-score was active: 7. With `O=[As](O)(c1ccc(O)cc1)c1ccccc1O` the outcome was “inactive”. For `C[As](=O)(O)c1cccc(C(=O)O)c1`, the outcome was “inactive”. For `Cc1cccc(C)c1OP(C)(N)=O` (stereo not drawn), the outcome was “inactive”. `Cc1ccc(OP(=O)(Nc2ccc([N+](=O)[O-])cn2)Oc2ccc(C)cc2)cc1` was tested, and the outcome was “inactive”. In the case of `CC(C)(C)c1ccc(OP(C)(=O)Nc2ccc(SC(F)(F)F)cc2)cc1` (stereo not drawn), the outcome is reported as “inactive”. With `O=[N+]([O-])c1ccc2c(c1)C=Nc1ccccc1O2` the outcome was “inactive”. In the case of `Cc1ccc2nc3c(c(C)c2c1)CC(C(Cl)Cl)S3` (stereo not drawn), the outcome is reported as “inactive”. With `ClCCSc1nnc(-c2cccnc2)o1` the outcome was “inactive”. In the case of `CCOC(=O)c1ccc(NP(C)(=O)Oc2ccccc2)cc1` (stereo not drawn), the outcome is reported as “inactive”. In the case of `CC(C)c1ccc(OP(=O)(Nc2ccccn2)Oc2ccccc2F)cc1` (stereo not drawn), the outcome is reported as “inactive”. With `Cc1ccc(NP(C)(=O)Oc2ccccc2)c(C)c1` (stereo not drawn) the outcome was “inactive”. `COc1ccccc1OP(C)(=O)Nc1ccc(C)cc1` (stereo not drawn) was tested, and the outcome was “inactive”. In the case of `COc1ccc(OP(C)(=O)Nc2cccc(F)c2)cc1` (stereo not drawn), the outcome is reported as “inactive”. With `O=[N+]([O-])c1cc([N+](=O)[O-])c(-c2ccn[nH]2)s1` the outcome was “inactive”.
